{
  "sequences": {"note": "Chains of the proteins cited; added tags and fusions are not shown. Lines headed by an entry give the natural chain unless they say otherwise; changes in a name come on top.", "UniProt Q9UNQ0": "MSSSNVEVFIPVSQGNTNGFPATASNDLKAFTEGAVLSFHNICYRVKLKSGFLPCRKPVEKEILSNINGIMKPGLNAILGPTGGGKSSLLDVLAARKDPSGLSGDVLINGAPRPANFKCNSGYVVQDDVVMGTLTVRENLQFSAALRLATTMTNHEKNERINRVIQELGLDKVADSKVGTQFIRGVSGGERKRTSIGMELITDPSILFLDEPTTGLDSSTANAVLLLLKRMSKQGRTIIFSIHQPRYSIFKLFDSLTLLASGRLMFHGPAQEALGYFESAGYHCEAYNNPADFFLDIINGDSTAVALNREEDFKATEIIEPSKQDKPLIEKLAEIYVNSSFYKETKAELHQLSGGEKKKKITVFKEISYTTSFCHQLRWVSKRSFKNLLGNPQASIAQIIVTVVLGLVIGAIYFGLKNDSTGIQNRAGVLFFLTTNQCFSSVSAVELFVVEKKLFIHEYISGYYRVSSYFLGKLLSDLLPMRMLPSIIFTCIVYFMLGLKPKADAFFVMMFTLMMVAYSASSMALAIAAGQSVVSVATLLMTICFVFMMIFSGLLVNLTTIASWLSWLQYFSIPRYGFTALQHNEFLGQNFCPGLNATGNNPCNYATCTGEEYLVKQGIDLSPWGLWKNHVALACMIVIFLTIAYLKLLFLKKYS"},
  "source": "ChEMBL document CHEMBL1681785",
  "about": "“Structure-activity relationships of flavonoids as inhibitors of breast cancer resistance protein (BCRP)” (Bioorg Med Chem, 2011)",
  "biological_target": "Broad substrate specificity ATP-binding cassette transporter ABCG2 (Homo sapiens, UniProt Q9UNQ0)",
  "assay": "Inhibition of BCRP expressed in MDCK cells using Hoechst 33342 staining",
  "type": "cell-based",
  "data": [
    {"smiles": "O=c1cc(-c2ccccc2)oc2cc(O)cc(O)c12", "note": "[CHRYSIN]", "values": [
      {"measurement": "IC50", "value": 1500, "unit": "nM"}
    ]}
  ]
}
